Experimental findings from patent publication US20250313530A1, “SMALL MOLECULE INHIBITORS OF INTERLEUKIN-4 AND USES THEREOF” (Trustees of Boston University, priority 2024, published 2025) are described below.

This assay has as its target T1, IL-4 (Homo sapiens, UniProt P05112).
T1 construct: purchased Acros Biosystems IL4-H4218; host or cells: HEK-293
T1 sequence (P05112 25-153): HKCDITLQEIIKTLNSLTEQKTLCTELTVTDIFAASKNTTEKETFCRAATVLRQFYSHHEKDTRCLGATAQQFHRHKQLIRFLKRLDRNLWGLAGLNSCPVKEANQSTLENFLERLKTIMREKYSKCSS
Kind of assay: HEK-Blue IL-4/IL-13 reporter assay, IL-4 inhibition. Format: cell-based. The procedure:
HEK-Blue IL-4/IL-13 Inhibition assay. HEK-Blue IL-4/IL-13 reporter cell lines were purchased from Invivogen and cultured in DMEM with 10% Heat Inactivated Fetal Bovine Serum (FBS), 100 U/ml-100 μg/ml Pen-Strep, 10 μg/ml blasticidin, 100 μg/ml Normocin and 100 μg/ml Zeocin. Cells were tested for secreted embryonic alkaline phosphatase (SEAP) production induced by IL-4 alone prior to small molecule screening.
22.5 μl of small molecule in DMEM 4% DMSO was added to 22.5 μl of 1 ng/ml IL-4 in DMEM in a non-binding 96-well reaction plate for 30 minutes at room temperature. The reaction plate was further incubated for 30-60 min at 37° C. HEK-Blue IL-4/IL-13 reporter cell line was used between passages 11-17. […] Measurements were done in triplicate. The plate was incubated for ˜22-24 hours at 37° C./5% CO2. Quanti-Blue dye was prepared as per the manufacturer's recommendation and 160 μl was dispensed in each well of a 96-well plate (avoid edges to avoid evaporation), 40 μl of cell supernatant was added to the same plate and incubated for 3 hours at 37° C./5% CO2. Optical density was then measured at 650 nm using Molecular Devices SpectraMax M5 Microplate reader. Data was analyzed and plotted using GraphPad Prism 9.2.0.
Background: In a reporter assay the amount or activity of a reporter protein is the signal.

Turning to `N#Cc1c(-c2ccc(O)cc2)cc(-c2ccc(F)cc2)[nH]c1=O` [Compound 46, 6-(4-fluorophenyl)-4-(4-hydroxyphenyl)-2-oxo-1,2-dihydropyridine-3-carbonitrile], the inhibition (in general, the drop in the measured response relative to a control, in per cent) at 10 µM amounted to 47.2 ± 12.1%.
